Measurements as given in US20260116867A1, “PROTEOLYSIS TARGETING CHIMERAS FOR HUMAN PREGNANE X RECEPTOR AND FOR DEGRADATION OF GSPT1” (ST. JUDE CHILDREN'S RESEARCH HOSPITAL, priority 2022, published 2026).

Amino acid sequences for entries named in this document (tags omitted). Residues count along the entry.
UniProt O75469, whole entry: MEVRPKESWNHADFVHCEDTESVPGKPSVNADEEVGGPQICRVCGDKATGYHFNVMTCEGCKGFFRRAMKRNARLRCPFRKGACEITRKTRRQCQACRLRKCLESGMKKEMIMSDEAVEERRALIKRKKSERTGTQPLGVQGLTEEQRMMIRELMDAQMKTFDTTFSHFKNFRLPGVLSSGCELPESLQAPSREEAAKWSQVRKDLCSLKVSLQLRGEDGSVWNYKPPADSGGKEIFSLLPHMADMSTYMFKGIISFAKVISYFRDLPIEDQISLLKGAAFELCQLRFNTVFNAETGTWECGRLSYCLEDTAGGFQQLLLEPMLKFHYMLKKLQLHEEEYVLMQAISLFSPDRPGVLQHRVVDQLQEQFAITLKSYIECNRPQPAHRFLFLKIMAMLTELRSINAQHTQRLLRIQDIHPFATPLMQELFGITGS
UniProt P15170, 1-637 isoform 3: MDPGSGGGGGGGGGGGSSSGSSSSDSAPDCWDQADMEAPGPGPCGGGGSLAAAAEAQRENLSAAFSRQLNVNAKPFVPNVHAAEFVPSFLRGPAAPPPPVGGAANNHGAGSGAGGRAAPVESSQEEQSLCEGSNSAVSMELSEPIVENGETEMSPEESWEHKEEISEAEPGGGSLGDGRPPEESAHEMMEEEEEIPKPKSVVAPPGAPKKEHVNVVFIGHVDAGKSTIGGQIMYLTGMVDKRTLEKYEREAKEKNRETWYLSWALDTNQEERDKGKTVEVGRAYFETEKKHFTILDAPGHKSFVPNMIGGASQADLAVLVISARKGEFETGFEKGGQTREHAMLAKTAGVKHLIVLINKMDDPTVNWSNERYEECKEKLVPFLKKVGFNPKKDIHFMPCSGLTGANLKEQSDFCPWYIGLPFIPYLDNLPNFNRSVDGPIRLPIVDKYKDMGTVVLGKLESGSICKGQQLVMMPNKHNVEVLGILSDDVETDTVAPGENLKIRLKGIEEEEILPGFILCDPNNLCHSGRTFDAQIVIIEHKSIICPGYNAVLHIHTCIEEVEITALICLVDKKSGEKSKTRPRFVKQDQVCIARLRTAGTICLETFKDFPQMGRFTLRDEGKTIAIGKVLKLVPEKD

Experiments:
[1] = target: hPXR (Homo sapiens, UniProt O75469); test: cell-based hPXR inverse agonistic assay
[2] = target: His-CRBN/DDB1 (Homo sapiens, UniProt Q96SW2); test: TR-FRET CRBN competitive binding assay (BODIPY FL thalidomide probe); settings: FIG. 9D
[3] = target: GSPT1 (Homo sapiens, UniProt P15170+Q96SW2); test: Western blot of GSPT1 protein in SNU—C4 3xFLAG-PXR KI cells

SMILES | Inverse agonist (% inhibition at 10 μM) ([1]; 10 μM, SPA70 at 10 μM as 100% inhibition, DMSO (0.3%) as 0%) | IC50 ([1]; read-out: Inverse agonist (IC50/μM), NA = no IC50 within concentration range tested (highest 30 μM)) | CRBN binding (in words) [2] | GSPT1 Loss at 10 μM (% ± SD) ([3]; 10 μM compound, calculated from western blots FIG. 9A) | GSPT1 degradation (in words) ([3]; western blot, SNU—C4 3xFLAG-PXR KI cells)
COc1ccc(OC)c(-n2nnc(C(=O)Nc3cc(OCCCc4cn(CCCCNC(=O)COc5cccc6c5C(=O)N(C5CCC(=O)NC5=O)C6=O)nn4)cc(C(C)(C)C)c3)c2C)c1 (centres unmarked) | (42 ± 6)% | 10.3 µM |  |  | 
COc1ccc(OC)c(-n2nnc(C(=O)Nc3cc(NC(=O)Nc4cccc5c4C(=O)N(C4CCC(=O)NC4=O)C5=O)cc(C(C)(C)C)c3)c2C)c1 (centres unmarked) |  |  | greatly reduced CRBN binding | 85 ± 2.2% | strong GSPT1 degradation activity
